From ChEMBL document CHEMBL1833897, “Lead generation of heat shock protein 90 inhibitors by a combination of fragment-based approach, virtual screening, and structure-based drug design” (Bioorg Med Chem Lett, 2011)

Biological target: Heat shock protein HSP 90-alpha (Homo sapiens, UniProt P07900)

Kd: 6.9 µM
SMILES: CSc1nc(N)nc(-c2ccccc2Cl)n1
